GIV Gai3 FP = blocks GIV peptide binding to rat Galpha-i3; P08753; Galpha-i3/FITC-GIV peptide fluorescence polarization, 90 min; stronger effect = lower value; scaled: aluminum fluoride 0%, vehicle 100%; percent of control (FP), % (no concentration beside the values); 210,000 tested, 0.42% active; AID 1224905;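 active = replicate mean at 85% of control or lower, very high polarization wells dropped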;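 also: wells of about 15 µL received 100 nL stock; the first replicate is given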
GIV-Gai FP conf = inhibitors of GIV peptide binding to Galpha-i3, confirmation, biochemical, fluorescence polarization, FITC-GIV peptide, rat Galphai3. shares compounds with GIV Gai3 FP. stronger effect = lower value. fluorescence polarization, mP at 100 µM. 580 tested, 38% active. AID 1259350, 2017;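 active means inhibition score of 15 or more, meaning 100 minus mean polarization as percent of control over three replicates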
GIV-Gai AS conf = inhibitors of GIV binding to Galpha-i3, confirmation, orthogonal assay for GIV-Galpha-i inhibitor project, biochemical, AlphaScreen, His-GIV, GST-Galphai3; shares compounds with GIV Gai3 FP; purified proteins, 90 min; stronger effect = lower value; AlphaScreen counts at 100 µM; 580 tested, 39% active; AID 1259351, 2017;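 active means inhibition score at or above a set limit, where the score is 100 minus the three-replicate mean percent of control signal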
Active calls of the source: *. This excerpt belongs to a sample that is enriched for hits.

How did CCCS(=O)(=O)c1ncc(Cl)c(C(=O)Nc2sc3c(c2C(=O)OCC)CCCC3)n1 do in these assays?
GIV Gai3 FP: 75.9*; GIV-Gai FP conf: 62.4; GIV-Gai AS conf: 44265

How did CCCS(=O)(=O)c1ncc(Cl)c(C(=O)Nc2sc3c(c2C(=O)OC)CCCC3)n1 do in these assays?
GIV Gai3 FP: 104.8

Results for CCOC(=O)c1c(NC(=O)c2nc(S(=O)(=O)CC)ncc2Cl)sc2c1CCCC2 ?
GIV Gai3 FP: 96.9

Results for O=C(NC1CC1)c1nc(Cn2c(=O)oc3ccc(Cl)cc32)no1 ?
GIV Gai3 FP: 102.3

Results for NS(=O)(=O)c1ccc(NC(=O)C2CCCN(c3ccc(=O)n(-c4cccc(F)c4)n3)C2)cc1 (stereo unspecified) ?
GIV Gai3 FP: 104.3

What do the screens show for `O=C(O)c1cc(NS(=O)(=O)c2cc(F)ccc2F)cnc1N1CCOCC1`?
GIV Gai3 FP: 56.8*; GIV-Gai FP conf: 32.6*; GIV-Gai AS conf: 29995

What do the screens show for `O=C(O)c1cc(NS(=O)(=O)c2cc(F)ccc2F)ccc1N1CCN(c2ccc(F)cc2)CC1`?
GIV Gai3 FP: 104.6

Results for O=C(O)c1cc(NS(=O)(=O)c2ccc3c(c2)CCCC3)cnc1N1CCCC1 ?
GIV Gai3 FP: 92.4

Results for O=C1CSC2(C(=O)N(CN3CCCCC3)c3ccccc32)N1c1cccc(C(F)(F)F)c1 (stereo unspecified) ?
GIV Gai3 FP: 101.0

How did CCOC(=O)c1c(C)[nH]c(C)c1S(=O)(=O)N1CCC(C(=O)N2CCc3ccccc3C2)CC1 do in these assays?
GIV Gai3 FP: 99.4

Results for CC(=O)Nc1cccc(Oc2nc(C)nc3sc4c(c23)CCC4)c1 ?
GIV Gai3 FP: 101.0

How did C=CCN1C(=O)/C(=C2/Sc3ccccc3N2CC)SC1=S do in these assays?
GIV Gai3 FP: 77.1*; GIV-Gai FP conf: 71.6; GIV-Gai AS conf: 3469*

What do the screens show for `CCN1C(=O)/C(=C/C=C2/Sc3ccccc3N2CC)SC1=S`?
GIV Gai3 FP: 196.7

How did C=CCN1C(=O)/C(=C2/Sc3ccc(Cl)cc3N2CC)SC1=S do in these assays?
GIV Gai3 FP: 110.7

What do the screens show for `COC(=O)N1CCCc2cc(C)ccc21`?
GIV Gai3 FP: 105.1

Results for CN1CCCc2cc(CN)ccc21 ?
GIV Gai3 FP: 69.5*; GIV-Gai FP conf: 53.6*; GIV-Gai AS conf: 4022*

How did CCOc1ccc(CC(=O)NCC(c2ccc3c(c2)CCCN3C)N2CCCC2)cc1 (stereo unspecified) do in these assays?
GIV Gai3 FP: 105.2

Results for COc1cc(OC)cc(C(=O)NCCn2c(C(F)(F)F)nc3cccnc32)c1 ?
GIV Gai3 FP: 104.5

How did O=C(NCCc1ccccc1)NCCn1c(C(F)(F)F)nc2cccnc21 do in these assays?
GIV Gai3 FP: 116.1

How did COC(=O)CNC(=O)NCCCn1c(C(F)(F)F)nc2cccnc21 do in these assays?
GIV Gai3 FP: 80.4*; GIV-Gai FP conf: 59.2*; GIV-Gai AS conf: 26853

How did CCn1nc(C)cc1/C(N)=N/O do in these assays?
GIV Gai3 FP: 103.2

What do the screens show for `Cc1cc(=O)[nH]c2c1c(C)nn2C(C)(C)C`?
GIV Gai3 FP: 102.5

Results for CCn1nc(N)c2c(O)[nH]c(=O)cc21 ?
GIV Gai3 FP: 41.0*; GIV-Gai FP conf: 34.5*; GIV-Gai AS conf: 25115*

How did O=C(Nc1cccc(Cl)c1)c1ccc2nncn2c1 do in these assays?
GIV Gai3 FP: 102.1

What do the screens show for `O=C(CCc1ccccc1)Nc1nnc(SCc2nnc(-c3ccccc3)o2)s1`?
GIV Gai3 FP: 109.7

Results for CC(C)c1ccc(C2=CC(=O)C=CC2=O)cc1 ?
GIV Gai3 FP: 107.5

Results for CCc1ccc(C2=CC(=O)C=CC2=O)cc1 ?
GIV Gai3 FP: 102.6

Results for O=C1C=CC(=O)C(c2ccc(C(=O)O)cc2)=C1 ?
GIV Gai3 FP: 69.8*; GIV-Gai FP conf: 55.3*; GIV-Gai AS conf: 2443*

What do the screens show for `O=C(CCc1nc2sc3c(c2c(=O)[nH]1)CCCC3)NCCC1=CCCCC1`?
GIV Gai3 FP: 100.4

Results for COC(=O)c1ccc(-c2ccc(/C=C3/C(=O)N(c4ccc(C)c(Cl)c4)N=C3C)o2)cc1 ?
GIV Gai3 FP: 102.9

Results for CCOC(=O)c1cccc(-c2ccc(/C=C3\C(=O)N(c4cccc(C(=O)O)c4)N=C3C)o2)c1 ?
GIV Gai3 FP: 92.9

What do the screens show for `COC(=O)c1ccc(N2N=C(C)/C(=C/c3ccc(-c4cccc(C(=O)O)c4)o3)C2=O)cc1`?
GIV Gai3 FP: 85.6; GIV-Gai FP conf: 56.2; GIV-Gai AS conf: 18724*

How did CC(C)c1ccc(NC(=O)c2sc3nc4c(cc3c2N)C(=O)CC(C)(C)C4)cc1 do in these assays?
GIV Gai3 FP: 110.2

How did COc1ccc(NC(=O)NC(C)C2CCCO2)c(OC)c1 (stereo unspecified) do in these assays?
GIV Gai3 FP: 99.0

What do the screens show for `O=C(c1ccc2c(c1)OCCO2)N1CCC(c2nc3c(nnn3Cc3ccc(F)cc3)c(=O)[nH]2)CC1`?
GIV Gai3 FP: 102.0

What do the screens show for `COc1ccccc1CNC(=O)c1ccc2c(c1)[nH]c(=S)n1c3ccccc3nc21`?
GIV Gai3 FP: 103.8

What do the screens show for `CCN1C=CC2=C(C#N)C(N)C(C#N)(C#N)C(c3cccs3)C2C1` (stereo unspecified)?
GIV Gai3 FP: 65.0*; GIV-Gai FP conf: 64.2; GIV-Gai AS conf: 28433

Results for CCOC(=O)C1=C(C)OC(N)=C(C#N)C1c1cccs1 (stereo unspecified) ?
GIV Gai3 FP: 100.4

What do the screens show for `CCOC(=O)N1CC=C2C(C#N)=C(N)C(C#N)(C#N)C(c3cccs3)C2C1` (stereo unspecified)?
GIV Gai3 FP: 106.8

How did CCc1ccc(-n2ncc(-c3cc(C(=O)NCc4cccnc4)c4ccccc4n3)c2C)cc1 do in these assays?
GIV Gai3 FP: 99.3

What do the screens show for `CC1=CC(=C2C(=O)NC(=S)NC2=O)C=C(C)N1Cc1ccco1`?
GIV Gai3 FP: 72.9*; GIV-Gai FP conf: 47.7*; GIV-Gai AS conf: 2400*

What do the screens show for `CC1=CC(=C2C(=O)NC(=S)NC2=O)C=C(C(F)(F)F)N1CCOCCO`?
GIV Gai3 FP: 107.8

How did O=C1c2ccccc2C(=O)N1Cc1ccco1 do in these assays?
GIV Gai3 FP: 109.5

Results for O=C(Cn1c(=O)c(C(F)(F)F)nc2ccccc21)Nc1ccc(Cl)cc1 ?
GIV Gai3 FP: 103.7

What do the screens show for `[O-][n+]1c2c(nn1-c1ccccc1)/C(=N\O)CCC2`?
GIV Gai3 FP: 102.5

Arranged by SMILES length (highest first): some entries from above.
Results for COc1cc(OC)cc(C(=O)NCCn2c(C(F)(F)F)nc3cccnc32)c1 ?
GIV Gai3 FP: 104.5

How did C=CCN1C(=O)/C(=C2/Sc3ccccc3N2CC)SC1=S do in these assays?
GIV Gai3 FP: 77.1*; GIV-Gai FP conf: 71.6; GIV-Gai AS conf: 3469*

What do the screens show for `COC(=O)N1CCCc2cc(C)ccc21`?
GIV Gai3 FP: 105.1

The listing continues:
How did COc1ccc(-c2nc3c(n2O)CCC/C3=N\O)cc1 do in these assays?
GIV Gai3 FP: 100.2

How did Cc1ccc(-n2nc3c(n2)/C(=N/O)CCC3)cc1 do in these assays?
GIV Gai3 FP: 78.7*; GIV-Gai FP conf: 66.2; GIV-Gai AS conf: 23948*

Results for O=C(Nc1ccc2c(c1)OCCO2)c1nc2ccccc2nc1N1CCCC1 ?
GIV Gai3 FP: 100.7

What do the screens show for `Cc1ccc(C(=O)Nc2cccc(O)c2)cc1S(=O)(=O)N1CCCCCC1`?
GIV Gai3 FP: 103.0

Filtered by structure, the entries above containing an aryl methoxy group
Results for COc1cc(OC)cc(C(=O)NCCn2c(C(F)(F)F)nc3cccnc32)c1 ?
GIV Gai3 FP: 104.5

How did COc1ccc(NC(=O)NC(C)C2CCCO2)c(OC)c1 (stereo unspecified) do in these assays?
GIV Gai3 FP: 99.0

What do the screens show for `COc1ccccc1CNC(=O)c1ccc2c(c1)[nH]c(=S)n1c3ccccc3nc21`?
GIV Gai3 FP: 103.8

How did COc1ccc(-c2nc3c(n2O)CCC/C3=N\O)cc1 do in these assays?
GIV Gai3 FP: 100.2

From PubChem
